Target: murine phosphorylated VEGFR2 (Mus musculus, UniProt P35918)
Experiment: In vivo target inhibition of murine phosphorylated VEGFR2
Settings: read-out: target inhibition (VEGFR activation)

Sequences of proteins named here, by UniProt entry; tags and fusion partners are left off. Residues count along the entry.
UniProt P35918, 20-1345: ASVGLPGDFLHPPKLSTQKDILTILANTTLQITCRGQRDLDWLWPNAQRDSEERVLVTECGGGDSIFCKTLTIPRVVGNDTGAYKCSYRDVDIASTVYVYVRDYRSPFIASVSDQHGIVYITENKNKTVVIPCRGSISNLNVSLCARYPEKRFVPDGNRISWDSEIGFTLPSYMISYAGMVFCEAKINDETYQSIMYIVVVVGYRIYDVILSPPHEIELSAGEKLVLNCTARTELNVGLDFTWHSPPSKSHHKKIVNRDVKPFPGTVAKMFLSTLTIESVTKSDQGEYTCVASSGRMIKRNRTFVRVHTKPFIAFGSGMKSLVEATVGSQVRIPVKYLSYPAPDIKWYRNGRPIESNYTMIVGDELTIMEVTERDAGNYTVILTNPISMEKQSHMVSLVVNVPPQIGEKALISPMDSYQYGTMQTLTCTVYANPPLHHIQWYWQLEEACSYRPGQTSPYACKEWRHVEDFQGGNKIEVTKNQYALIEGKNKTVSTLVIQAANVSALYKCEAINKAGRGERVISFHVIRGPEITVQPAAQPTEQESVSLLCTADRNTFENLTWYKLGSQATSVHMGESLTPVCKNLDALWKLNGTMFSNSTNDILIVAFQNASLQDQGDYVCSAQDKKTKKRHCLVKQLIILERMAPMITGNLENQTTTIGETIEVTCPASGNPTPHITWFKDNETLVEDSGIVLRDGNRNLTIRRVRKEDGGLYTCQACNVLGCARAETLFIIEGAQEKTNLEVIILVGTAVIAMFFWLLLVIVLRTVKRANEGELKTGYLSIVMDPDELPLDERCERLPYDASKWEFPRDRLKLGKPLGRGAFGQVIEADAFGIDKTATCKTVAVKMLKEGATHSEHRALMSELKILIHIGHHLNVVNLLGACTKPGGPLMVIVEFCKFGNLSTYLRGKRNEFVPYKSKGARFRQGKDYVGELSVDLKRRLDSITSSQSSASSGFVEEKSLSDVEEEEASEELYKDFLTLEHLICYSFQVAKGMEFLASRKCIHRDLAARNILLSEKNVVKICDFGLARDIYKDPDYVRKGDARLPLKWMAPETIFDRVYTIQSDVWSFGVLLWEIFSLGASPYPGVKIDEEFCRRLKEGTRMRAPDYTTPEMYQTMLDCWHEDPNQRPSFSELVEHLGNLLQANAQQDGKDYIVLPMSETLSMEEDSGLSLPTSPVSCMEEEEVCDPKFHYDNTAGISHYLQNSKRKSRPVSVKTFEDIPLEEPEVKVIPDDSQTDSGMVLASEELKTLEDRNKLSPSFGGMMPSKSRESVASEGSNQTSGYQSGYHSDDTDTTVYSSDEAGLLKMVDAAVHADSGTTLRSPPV

- inhibition at 20 mg/kg: 95%
SMILES: CCN(CC)CCNC(=O)c1c(C)[nH]c(/C=C2\C(=O)Nc3ccc(F)cc32)c1C [sunitinib]
